# Test system: HCV genotype 1b I389Iuc-ubi-neo/NS3-3′/5.1 replicon in Huh5.2 cells
# Type: cell-based, Hepatitis C Virus
# Conditions: Huh5.2 replicon assay
# Description: Antiviral efficacy against genotype 1 HCV may be tested as follows: One day before addition of the test article, Huh5.2 cells, containing the HCV genotype 1b I389Iuc-ubi-neo/NS3-3′/5.1 replicon (Vrolijk et al., 2003) and subcultured in cell growth medium [DMEM (Cat No. 41965039) supplemented with 10% FCS, 1% non-essential amino acids (11140035), 1% penicillin/streptomycin (15140148) and 2% Geneticin (10131027); Invitrogen] at a ratio of 1.3-1.4 and grown for 3-4 days in […] tissue culture flasks (Techno Plastic Products), were harvested and seeded in assay medium (DMEM, 10% FCS, 1% non-essential amino acids, 1% penicillin/streptomycin) at a density of 6500 cells/well (100 uL/well) in 96-well tissue culture microtitre plates (Falcon, Beckton Dickinson for evaluation of the anti-metabolic effect and CulturPlate, Perkin Elmer for evaluation of antiviral effect). […]
# For the evaluation of antiviral effects, assay medium is aspirated and the cell monolayers are washed with PBS. […] Subsequently, 50 uL of Luciferase Assay System (Cat. No. E1501, Promega) is added and the luciferase luminescence signal is quantified immediately (1000 ms integration time/well, Safire^2, Tecan). Relative luminescence units are converted to percentage of untreated controls.
# The selectivity index (SI), indicative of the therapeutic window of the compound, is calculated as CC50/EC50. […]
smiles,measurement,value
"CC[C@H]1C[C@H](C)[C@@]2(NC1=O)O[C@@H](C[C@H](O)[C@@H](C)CC/C=C/C=C(\C)[C@@H]1C/C=C/C=C/[C@H](O)[C@H](C)[C@@H](O)[C@@H](CCC(C)=O)C(=O)N[C@@H](C(C)C)C(=O)N[C@@H](Cc3ccccc3)C(=O)N3CCCC(N3)C(=O)O1)[C@H](C)[C@H](O)[C@@H]2C (stereo partly shown) [Compound 18, 61-Deshydroxy Sanglifehrin A]",Selectivity index (CC50/EC50),3.5

# From patent US9271977B2, “Sanglifehrin derivatives and methods for their production” (NeuroVive Pharmaceutical AB, priority 2010, dated 2016)
